ChEMBL document CHEMBL1921786
pIC50: −log10 of the molar value.

Sequences of proteins named here, by UniProt entry; tags and fusion partners are left off.
UniProt Q29550, whole entry, looked up: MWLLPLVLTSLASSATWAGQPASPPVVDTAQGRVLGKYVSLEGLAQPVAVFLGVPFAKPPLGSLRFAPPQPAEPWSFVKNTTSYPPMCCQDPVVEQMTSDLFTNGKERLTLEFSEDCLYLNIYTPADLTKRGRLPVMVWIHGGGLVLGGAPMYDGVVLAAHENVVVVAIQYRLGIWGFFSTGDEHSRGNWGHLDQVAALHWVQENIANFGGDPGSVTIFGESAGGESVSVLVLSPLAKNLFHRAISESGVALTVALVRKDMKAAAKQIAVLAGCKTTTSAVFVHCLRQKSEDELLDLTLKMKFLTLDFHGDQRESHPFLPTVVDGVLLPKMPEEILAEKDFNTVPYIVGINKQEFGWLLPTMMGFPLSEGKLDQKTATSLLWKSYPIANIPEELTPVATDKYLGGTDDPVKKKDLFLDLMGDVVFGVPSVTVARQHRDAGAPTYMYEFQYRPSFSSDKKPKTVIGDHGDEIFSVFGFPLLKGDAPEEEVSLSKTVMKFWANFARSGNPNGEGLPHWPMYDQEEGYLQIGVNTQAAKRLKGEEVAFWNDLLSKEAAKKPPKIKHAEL

The molecules below were run against Liver carboxylesterase (Sus scrofa, UniProt Q29550).

SMILES | pIC50
C#CCOP(C)(=O)OC(C(=O)OC)C(F)(F)F (stereo not given) | 5.22
COC(=O)C(OP(C)(=O)OCc1cn(C[C@@H](NC(=O)CN(Cc2ccccc2)C(=O)[C@H](C)NC(=O)OC(C)(C)C)C(C)C)nn1)C(F)(F)F (stereo not given in full) | 4.10
C#CCOP(C)(=O)OC(C(F)(F)F)C(F)(F)F (stereo not given) | 4.64
CC[C@H](C)[C@@H](Cn1cc(COP(C)(=O)OC(C(F)(F)F)C(F)(F)F)nn1)NC(=O)CN(Cc1ccccc1)C(=O)C(F)(F)F (stereo not given in full) | 4.19
CC(C)[C@@H](Cn1cc(COP(C)(=O)OC(C(F)(F)F)C(F)(F)F)nn1)NC(=O)CN(Cc1ccccc1)C(=O)C(F)(F)F (stereo not given in full) | 4.07
